Experimental data as given in patent publication US6254882A, “Methods and compositions for treating pulmonary disorders using optically pure (S)--salmeterol” (Sepracor Inc., priority 1997, dated 2001).

What was measured:
[1] = tested on: isolated guinea pig tracheal strips; assay: Relaxation of histamine-contracted isolated guinea pig tracheal strips; design: species or system guinea pig (male Hartley); conditions: read-out: EC50 Tracheal Relaxation, determined by linear regression of percent maximum response; % of maximum relaxation by 1 mM papaverine; tested up to 1000 nM; r(log-lin) = 0.9453-0.9968; (S)-salmeterol extrapolated from three data points
[2] = tested on: isolated guinea pig right atria; assay: Chronotropic effect on isolated guinea pig right atria (atrial rate); design: species or system guinea pig (male Hartley); conditions: read-out: EC50 Atrial Rate, determined by linear regression of percent maximum response; % of rate produced by 1 μM forskolin; tested up to 1000 nM; r(log-lin) = 0.9453-0.9968

| Structure (SMILES) | EC50 [1] | EC50 [2] |
| --- | --- | --- |
| COc1ccc(C[C@H](C)NC[C@@H](O)c2ccc(O)c(NC=O)c2)cc1 | 3460 nM | > 10000 nM |
| COc1ccc(C[C@@H](C)NC[C@H](O)c2ccc(O)c(NC=O)c2)cc1 (relative stereo) | 9.4 nM | 5.7 nM |
| COc1ccc(C[C@@H](C)NC[C@H](O)c2ccc(O)c(NC=O)c2)cc1 | 2.5 nM | 6.3 nM |
